Chains of the proteins cited; added tags and fusions are not shown.
UniProt P14416, whole entry: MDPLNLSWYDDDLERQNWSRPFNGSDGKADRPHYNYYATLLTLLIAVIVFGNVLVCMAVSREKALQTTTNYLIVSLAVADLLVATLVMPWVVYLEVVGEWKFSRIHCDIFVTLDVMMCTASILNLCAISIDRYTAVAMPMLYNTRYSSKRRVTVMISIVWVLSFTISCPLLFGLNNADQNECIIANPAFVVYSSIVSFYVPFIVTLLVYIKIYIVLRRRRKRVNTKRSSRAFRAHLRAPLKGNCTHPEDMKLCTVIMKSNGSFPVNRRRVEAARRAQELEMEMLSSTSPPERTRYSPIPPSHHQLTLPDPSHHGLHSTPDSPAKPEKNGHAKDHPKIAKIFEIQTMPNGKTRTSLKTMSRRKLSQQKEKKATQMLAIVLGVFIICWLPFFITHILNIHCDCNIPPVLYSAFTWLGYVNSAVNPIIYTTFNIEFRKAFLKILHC

In ChEMBL document CHEMBL1145183, “Novel heterocyclic trans olefin analogues of N-{4-[4-(2,3-dichlorophenyl)piperazin-1-yl]butyl}arylcarboxamides as selective probes with high affinity for the dopamine D3 receptor” (J Med Chem, 2005):

Target: D(2) dopamine receptor (Homo sapiens, UniProt P14416)

- Ki: 39.3 nM
SMILES: O=C(NCCCCN1CCN(c2cccc(Cl)c2Cl)CC1)c1ccc(I)cc1
